According to patent US20050192261A1, “Methods and reagents for the treatment of immunoinflammatory disorders” (priority 2003, published 2005):

Tested on: TNFα secretion in white blood cells from human buffy coat stimulated with phorbol 12-myristate 13-acetate and ionomycin
Assay: TNFα secretion assay
Details: cetrizine HCl r5-r13: 0,0.2,0.4,0.8,1.6,3.2,6.4,13,26 μM

Compound: Cl.Cl.O=C(O)COCCN1CCN(C(c2ccccc2)c2ccc(Cl)cc2)CC1 (centres unmarked) [Cetrizine HCl]
- inhibition of TNFα secretion (prednisolone 0.5 μM): 42 and 45 and 46 and 40 and 39 and 41
- inhibition of TNFα secretion (prednisolone 1 μM): 47

Where “and” joins values, the source holds several entries; their conditions need not be identical. Identical values can stand only once.
